Experimental data taken from publication PMC8449414, “Rational design of ASCT2 inhibitors using an integrated experimental-computational approach” (Proceedings of the National Academy of Sciences of the …, 2021).

Protein sequences, listed by entry. Tags and fused reporters are not part of them.
UniProt Q15758, whole entry: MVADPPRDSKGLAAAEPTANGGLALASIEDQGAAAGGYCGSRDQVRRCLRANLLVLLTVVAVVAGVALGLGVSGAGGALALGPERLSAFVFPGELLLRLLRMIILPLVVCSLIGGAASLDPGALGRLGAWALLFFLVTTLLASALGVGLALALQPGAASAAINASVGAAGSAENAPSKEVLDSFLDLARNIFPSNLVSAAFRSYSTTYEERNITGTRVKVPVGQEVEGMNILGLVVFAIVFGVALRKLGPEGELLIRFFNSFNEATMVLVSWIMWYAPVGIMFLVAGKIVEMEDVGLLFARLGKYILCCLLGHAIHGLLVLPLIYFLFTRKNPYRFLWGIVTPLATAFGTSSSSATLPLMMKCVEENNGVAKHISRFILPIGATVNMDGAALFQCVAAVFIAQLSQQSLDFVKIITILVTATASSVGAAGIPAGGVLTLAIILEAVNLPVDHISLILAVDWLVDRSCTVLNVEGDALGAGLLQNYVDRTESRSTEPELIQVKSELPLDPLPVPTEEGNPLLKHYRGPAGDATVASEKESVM
UniProt P51907, whole entry: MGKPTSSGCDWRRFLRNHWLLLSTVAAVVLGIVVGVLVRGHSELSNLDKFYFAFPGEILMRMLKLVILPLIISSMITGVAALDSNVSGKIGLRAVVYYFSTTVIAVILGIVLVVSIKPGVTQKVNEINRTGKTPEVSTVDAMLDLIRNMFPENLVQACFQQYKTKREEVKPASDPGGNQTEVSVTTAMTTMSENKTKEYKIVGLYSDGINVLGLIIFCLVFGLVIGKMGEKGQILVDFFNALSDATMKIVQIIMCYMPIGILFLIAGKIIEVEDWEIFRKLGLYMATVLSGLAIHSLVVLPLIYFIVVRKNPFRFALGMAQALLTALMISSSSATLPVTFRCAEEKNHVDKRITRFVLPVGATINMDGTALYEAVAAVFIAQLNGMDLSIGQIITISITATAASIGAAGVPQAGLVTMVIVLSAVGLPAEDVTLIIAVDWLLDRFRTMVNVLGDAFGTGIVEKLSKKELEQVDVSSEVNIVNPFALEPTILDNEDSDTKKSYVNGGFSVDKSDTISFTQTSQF

What was measured:
hASCT2 = hASCT2 (Homo sapiens, UniProt Q15758); assay: Glutamine transport assay in proteoliposomes reconstituted with purified hASCT2; conditions: read-out: IC50, inhibition of glutamine uptake in proteoliposomes; in the presence of 5 µM glutamine
Description: Our computational models predicted Lc-BPE as a competitive inhibitor targeting the substrate binding site. To test this prediction, we performed electrophysiological competition experiments in the presence of varying concentrations of the substrate, L-alanine. The results were consistent with a competitive inhibition mechanism (SI Appendix, Fig. S4). At low inhibitor concentrations, the alanine-induced currents were inward, as expected from transported substrates, indicative of the inability of Lc-BPE to displace alanine from the binding site. However, as inhibitor concentration increased, the currents became outwardly directed in a dose-dependent manner, which marked the displacement of alanine by the inhibitor (SI Appendix, Fig. S5). The apparent Ki increased as a function of the alanine concentration, as anticipated for a competitive mechanism (SI Appendix, Figs. S5 and S6). […]
cells. […] Current s traces were recorded using an Adams and List EPC7 amplifier and digitized using a Molecular Devices Digidata A/D converter.
Data analysis was performed as described previously 46. Linear and nonlinear curve fitting of the experimental data were analyzed using MicroCal Origin software. […]

rEAAT3 = rEAAT3 (Rattus norvegicus, UniProt P51907); assay: Electrophysiology: SLC1 specificity, anion current in transfected HEK293 cells; conditions: 0 mV, 10 mM glutamate and 130 mM NaSCN internal, No current = no outward current up to highest concentration tested (§ 20-50, || 100-400, # 1500-2500 µM)
Method: We also tested the specificity of Lc-BPE for ASCT2 over other SLC1 family members (ASCT1, EAAT1-3, and EAAT5). […] However, the apparent affinity of human ASCT1 (hASCT1) for Lc-BPE was ∼3.8-fold lower than that of rASCT2 (SI Appendix, Fig. S3 B and C), showing slight preference for ASCT2. For the EAATs, the highest affinity interaction of Lc-BPE was with hEAAT5, Ki of 2.22 ± 0.46 µM, which was ∼3-fold higher Ki than rASCT2, while interaction with EAAT1, EAAT2, and EAAT3 was weaker (SI Appendix, Fig. S3).
Fig. S3. SLC-1 specificity of Lc-BPE. […] (B-C) Dose response curves obtained from currents recorded a fter application of Lc-BPE extracellularly to cells transiently expressing hASCT2, rASCT2, hASCT1 (panel B) and rEAAT1, rEAAT2, rEAAT3 and hEAAT5 (panel C) respectively. […]
Human embryonic kidney 293 (HEK293, ATCC CRL -11268) cells were cultured in DMEM media supplemented with 10% (v/v) fetal bovine serum (FBS), 2 mM glutamine, 1% penicillin streptomycin solution, 1 mM sodium pyruvate and non -essential amino acids. […] Cells were analyzed using electrophysiological techniques 24-40 hours after transfection. […]
cells. […] Current s traces were recorded using an Adams and List EPC7 amplifier and digitized using a Molecular Devices Digidata A/D converter. […]

pIC50 (hASCT2): 3.68
Binding affinity Ki (rEAAT3): No current
SMILES: O=C(O[C@@H]1CN[C@H](C(=O)O)C1)c1ccc(C(=O)c2ccccc2)cc1

pIC50: −log10 of the molar value.
